Assays:
human FXR = human FXR (Homo sapiens, UniProt Q96RI1); assay: FXR reporter assay (cellular FXR activities); format: cell-based
Mouse pharmacokinetics = assay: Mouse pharmacokinetics; parameters: concentration or dose not given beside the values; conditions: Balb/c male mice; blood samples 15 to 1140 min; LC-MS/MS

The chains behind the UniProt entries cited, without tags or fusion partners.
UniProt Q96RI1, whole entry: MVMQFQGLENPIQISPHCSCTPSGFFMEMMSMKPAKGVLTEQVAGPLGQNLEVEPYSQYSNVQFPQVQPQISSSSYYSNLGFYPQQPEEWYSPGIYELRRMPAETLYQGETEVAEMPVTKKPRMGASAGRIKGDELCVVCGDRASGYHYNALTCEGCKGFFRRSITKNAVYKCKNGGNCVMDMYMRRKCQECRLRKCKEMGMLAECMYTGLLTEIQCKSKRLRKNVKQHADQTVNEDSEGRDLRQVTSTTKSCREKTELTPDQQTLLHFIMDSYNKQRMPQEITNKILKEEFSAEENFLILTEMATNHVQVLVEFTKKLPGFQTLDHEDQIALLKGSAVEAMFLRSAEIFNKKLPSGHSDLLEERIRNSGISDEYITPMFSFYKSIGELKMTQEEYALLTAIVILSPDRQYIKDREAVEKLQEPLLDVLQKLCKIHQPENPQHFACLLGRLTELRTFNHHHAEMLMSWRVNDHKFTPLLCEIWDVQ

EC50 (human FXR; read-out: Reporter Cell EC50, FXR reporter cells, 24 hours incubation, luciferase): 0.2 to 1 µM
Emax (%) (GW4064 Emax = 100%) (human FXR; relative to GW4064 Emax = 100%): 90%
AUC (Mouse pharmacokinetics): 352.09 ng·h/mL
SMILES: O=C(O)c1ccc(C2CC2c2ccc(OCc3c(-c4c(Cl)cccc4Cl)noc3C3CC3)cc2Cl)cc1 (stereo not drawn)
